## Antibody variant affinities, Ab-14 heavy chain, assay B

Binding partner: SARS-CoV-2 spike HR2 peptide, sequence PDVDLGDISGINAS.

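Phage display of a naive human antibody library on the peptide gave the parent. Designed CDR sequences, proposed from the first random library and measured here. Group labels follow the data file (Rand: our label for a block that the file lists under HC and that is probably the random mutants of the ten best first-round binders; En: ensemble of fine-tuned language models; HC: hill climbing; Gen: genetic algorithm; Gibbs: Gibbs sampling; a sequence that several methods proposed may carry one label only). In AlphaSeq, yeast of one mating type display the scFv and yeast of the other type display the target. Pairs that bind mate more often; barcode pairs of the diploids are counted by sequencing. The ratio of observed to expected reads was calibrated, replicate by replicate, on BCL2-family standards whose Kd was known from biolayer interferometry. The assay was run in six technical replicates.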

Parent scFv Ab-14: VH joined to VL by the linker GGGGSGGGGSGGGGS. Changes lie in the heavy chain CDRs alone.
VH: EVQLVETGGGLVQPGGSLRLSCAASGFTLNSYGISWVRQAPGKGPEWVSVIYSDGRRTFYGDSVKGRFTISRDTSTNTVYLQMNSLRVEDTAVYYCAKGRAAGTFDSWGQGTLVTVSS
VL: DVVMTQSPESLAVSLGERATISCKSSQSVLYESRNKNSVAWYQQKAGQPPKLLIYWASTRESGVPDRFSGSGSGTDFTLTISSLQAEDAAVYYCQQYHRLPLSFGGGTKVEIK

Each variant is given by its three heavy chain CDRs, as the data file delimits them; those of the parent are GFTLNSYGIS, VIYSDGRRTFYGDSVK, GRAAGTFDS.
Variants here have more than six changes.
Scale: log10 of Kd in nM, estimated from mating counts; low values are strong binders.
Averages over replicates are reported, and they cover detected replicates only.
"nd" means that the variant was in the library but no mating with the target was seen in that replicate; the authors take this as a sign of poor binding, and no number exists.

CDR-H1,CDR-H2,CDR-H3,group,log10 Kd (nM) by replicate,"log10 Kd (nM), mean",signal with controls
GFDLNEYGIS,VIYADGRRTFYADSVK,GNNGGTFDV,En_HC,-0.13 / -0.41 / -0.18 / -0.47 / -0.04 / -0.72,-0.33,0 of 18
GFDLNEYGIS,VIYADGMRTAYADNVK,GQVAGTFDT,En_Gen,nd / 3.38 / 3.14 / nd / nd / nd,3.26,1 of 18 (2.68)
GFDLNEYGIS,VIYADGLRTFYTDSVK,GEFAGTFDM,En_HC,-0.73 / -1.07 / -0.78 / -1.22 / -0.85 / -0.69,-0.89,0 of 18
GFDLNEYGIS,VIYADGRRTAYTDSVK,GENAGTFDI,En_Gen,0.58 / 0.82 / 0.42 / 0.86 / 1.25 / 1.53,0.91,0 of 18
GFNLDEYGIS,VIYADGRRTFYADSVK,GQVAGTFLT,En_HC,0.24 / -0.40 / -0.36 / -0.72 / -0.53 / -0.24,-0.33,0 of 18
GFDLNEYGIS,VIYADGKRTAYIDSVK,GNVAGTFDV,En_Gen,0.58 / -0.01 / -0.40 / -0.09 / -0.30 / 0.51,0.05,0 of 18
GFDLDEYGIS,VIYADGVRTAYADSVK,GETAGTFDQ,En_Gen,nd / 0.04 / 0.22 / -0.86 / -0.55 / -0.03,-0.23,0 of 18
GFDLDEYGIS,VIYADGMRTAYSDNVK,GETAGTFDQ,En_Gen,0.17 / nd / nd / nd / nd / nd,0.17,0 of 18
GFDLNEYGIS,VIYADGRRTFYSDSVK,GSVAGTFDK,En_HC,-0.52 / -0.74 / -0.61 / -0.80 / -0.66 / -0.45,-0.63,0 of 18
GFDLDQYGIS,VIYADGIRSVYADAVK,GHEGGIFLV,En_Gibbs,nd / nd / nd / nd / nd / nd,nd,0 of 18
GFDIEEYGIS,VIYADGMRSSYSQSFK,GLYSGNISV,En_Gibbs,nd / 2.78 / nd / nd / nd / nd,2.78,0 of 18
GQSLDDYGIS,VIYADGQRKAYVDEVK,GYVAGTFDI,En_Gibbs,0.33 / 0.32 / 0.34 / -0.23 / 0.08 / 0.56,0.24,0 of 18
GFDLNEYGIS,VIYADGKRTAYADKVK,GNVAGTFDV,En_Gen,-0.75 / -0.01 / -1.01 / -1.19 / -0.67 / -0.72,-0.72,0 of 18
GFDLDEYGIS,VIYADGQRTAYADSVK,GETAGTFDI,En_Gen,-0.09 / 0.17 / -0.12 / -0.33 / 0.49 / 0.98,0.18,0 of 18
GFKIDEYGIS,VIYADGMRAHYSDAVK,GVKGFNVVM,En_Gibbs,nd / nd / nd / nd / nd / nd,nd,0 of 18
GFDLNEYGIS,VIYADGIRTAYADNVK,GNVAGTFDV,En_Gen,-0.26 / -0.18 / -0.60 / -0.75 / -0.64 / -0.29,-0.45,0 of 18
TFTLNSYGLR,VIYADGRRTFYWDSVK,GRAAGTCKS,Rand,nd / nd / nd / nd / nd / nd,nd,0 of 18
GFTENQYGIS,VNYSDGRRTFYSDSVK,GTAAGFFSS,Rand,nd / nd / nd / nd / nd / nd,nd,1 of 18 (2.28)
GFNLNEYGIS,VIYADGMRTFYADSVK,GEIAGTFDF,En_HC,-0.37 / -0.49 / -0.82 / -0.69 / -0.81 / -0.79,-0.66,0 of 18
GFQLEEMGIS,VIYADGVRTAYSSKVK,GINGDKFDV,En_Gibbs,nd / nd / nd / nd / nd / nd,nd,0 of 18
GFDLNEYGIS,VIYADGRRTFYADSVK,GKNAGTIDV,En_HC,-0.24 / -0.58 / -0.46 / -0.39 / -0.71 / -0.26,-0.44,1 of 18 (2.78)
GFDLDEYGIS,VIYADGRRTAYADSVK,GNNAGTFDT,En_Gen,0.02 / -0.55 / 0.00 / -0.34 / -0.11 / -0.32,-0.22,0 of 18
GFNLDEYGIS,VIYADGMRTFYADSVK,GQVAGTFDS,En_HC,-0.75 / -0.35 / -0.46 / -0.80 / -0.62 / -0.35,-0.56,0 of 18
EFDLNNYGIS,VIYADGLRTQYETSVK,GDVAGTFDS,En_Gibbs,0.50 / 0.53 / 1.96 / 0.72 / 2.77 / 0.18,1.11,0 of 18
GFDLNEYGIS,VIYADGKRTFYSDSVK,GNMAGTFDV,En_HC,0.16 / 0.49 / 0.05 / 0.26 / -0.55 / 0.47,0.15,0 of 18
GWDLEHYGIS,VIYADGKRSEYSNAVK,GQQAGTFNT,En_Gibbs,0.17 / 1.11 / 0.46 / 1.16 / 0.54 / 0.26,0.62,0 of 18
GFNLDEYGIS,VIYADGRRTFYADSVK,GEHAGSFDI,En_HC,0.65 / 0.99 / 0.70 / -0.05 / 0.30 / 1.58,0.69,0 of 18
GFDLDEYGIS,VIYADGRRTAYADSVK,GNEAGTFDI,En_Gen,nd / nd / nd / nd / nd / nd,nd,0 of 18
GFKLNEYGIS,VIYADGQRKSYADSFK,GRWTGQVIV,En_Gibbs,0.94 / 1.08 / 1.97 / 0.86 / 0.10 / 0.98,0.99,0 of 18
GFDLNEYGIS,VIYADGVRTFYADDVK,GNQAGTFDV,En_Gen,0.27 / -0.33 / -0.03 / -0.30 / -0.19 / -0.04,-0.10,0 of 18
GQDLSEYGIS,VIYADGVRRSYAESVK,GNTSGNFSS,En_Gibbs,nd / nd / nd / nd / nd / nd,nd,0 of 18
GFDLDEYGIS,VIYADGSRTAYADDVK,GNVAGTFDV,En_Gen,-0.19 / -0.59 / 0.74 / -0.22 / -0.65 / 1.21,0.05,0 of 18
GFNISEYGIS,VIYADGRRTSYKNTVK,GNLTWLFDV,En_Gibbs,nd / nd / nd / nd / nd / nd,nd,0 of 18
GDDLENVGIS,VIYADGMRKQYAQNVK,GHTGGTFFD,En_Gibbs,nd / nd / nd / nd / nd / nd,nd,0 of 18
GFDLNEYGIS,VIYADGRRTFYSDSVK,GNLAGTFDV,En_HC,nd / nd / nd / nd / nd / nd,nd,0 of 18
GQDLAEYGIS,VIYADGKRTMYANDVK,GHNDGQGKT,En_Gibbs,nd / nd / 2.67 / nd / nd / nd,2.67,2 of 18 (2.54)
GFDLNEYGIS,VIYADGRRTAYVQSVK,GKNNMVDSV,En_Gibbs,nd / nd / nd / nd / nd / nd,nd,0 of 18
GFDLNEYGIS,VIYADGMRTAYADNVK,GNQAGTFDL,En_Gen,-0.05 / -0.30 / -0.20 / -0.35 / -0.48 / -0.15,-0.25,0 of 18
GFNLNEYGIS,VIYADGRRTFYADSVK,GEQAGTFDV,En_HC,0.07 / 0.00 / 0.21 / -0.29 / -0.11 / 0.16,0.01,0 of 18
GFDLNEYGIS,VIYADGRRTAYSDSVK,GNVAGTFDV,En_Gen,-0.10 / -0.83 / -0.64 / -0.96 / -0.92 / -0.17,-0.61,0 of 18
GFDLTEYGIS,VIYADGRRTEYSTDVK,GQTAGHFLD,En_Gibbs,nd / nd / nd / nd / nd / nd,nd,0 of 18
GFDLDEYGIS,VIYADGSRTAYSDSVK,GNVAGTFDL,En_Gen,-0.61 / -0.39 / -0.49 / -0.39 / -0.76 / -0.10,-0.46,1 of 18 (0.66)
GFDLNEYGIS,VIYADGMRTFYTDSVK,GEFAGTFDT,En_HC,-0.27 / 0.32 / -0.37 / -0.13 / -0.09 / 0.12,-0.07,0 of 18
GFDLNEYGIS,VIYADGVRTAYTDSVK,GEVAGTFDI,En_Gen,0.21 / 0.30 / 0.46 / 0.79 / 0.13 / 0.58,0.41,0 of 18

The closing 4 entries, repeated:

CDR-H1,CDR-H2,CDR-H3,group,log10 Kd (nM) by replicate,"log10 Kd (nM), mean",signal with controls
GFDLTEYGIS,VIYADGRRTEYSTDVK,GQTAGHFLD,En_Gibbs,nd / nd / nd / nd / nd / nd,nd,0 of 18
GFDLDEYGIS,VIYADGSRTAYSDSVK,GNVAGTFDL,En_Gen,-0.61 / -0.39 / -0.49 / -0.39 / -0.76 / -0.10,-0.46,1 of 18 (0.66)
GFDLNEYGIS,VIYADGMRTFYTDSVK,GEFAGTFDT,En_HC,-0.27 / 0.32 / -0.37 / -0.13 / -0.09 / 0.12,-0.07,0 of 18
GFDLNEYGIS,VIYADGVRTAYTDSVK,GEVAGTFDI,En_Gen,0.21 / 0.30 / 0.46 / 0.79 / 0.13 / 0.58,0.41,0 of 18

As a blank, each scFv also met three strains without target: over all heavy chain designs, 1% of these pairings were detected, typically at 2.08 and seldom below 0.84. For each scFv, signals with the empty controls are counted beside the result, with their mean in brackets.
Values of this round are not directly comparable with the first-round values of the same sequences.
The parent sequence was in this pool as ten entries: three were never detected, three once, and four in most replicates, with averages from 0.34 to 2.37.
In the paper, a design with two or fewer of six values counts as a poor binder.

From the AlphaSeq antibody data of Li et al. 2023 (doi:10.1038/s41467-023-39022-2), copy in the FLAb collection.